By UniProt entry, the sequences of proteins in these tests, tags left out.
UniProt A0A3Q0KK01, entry or part of it: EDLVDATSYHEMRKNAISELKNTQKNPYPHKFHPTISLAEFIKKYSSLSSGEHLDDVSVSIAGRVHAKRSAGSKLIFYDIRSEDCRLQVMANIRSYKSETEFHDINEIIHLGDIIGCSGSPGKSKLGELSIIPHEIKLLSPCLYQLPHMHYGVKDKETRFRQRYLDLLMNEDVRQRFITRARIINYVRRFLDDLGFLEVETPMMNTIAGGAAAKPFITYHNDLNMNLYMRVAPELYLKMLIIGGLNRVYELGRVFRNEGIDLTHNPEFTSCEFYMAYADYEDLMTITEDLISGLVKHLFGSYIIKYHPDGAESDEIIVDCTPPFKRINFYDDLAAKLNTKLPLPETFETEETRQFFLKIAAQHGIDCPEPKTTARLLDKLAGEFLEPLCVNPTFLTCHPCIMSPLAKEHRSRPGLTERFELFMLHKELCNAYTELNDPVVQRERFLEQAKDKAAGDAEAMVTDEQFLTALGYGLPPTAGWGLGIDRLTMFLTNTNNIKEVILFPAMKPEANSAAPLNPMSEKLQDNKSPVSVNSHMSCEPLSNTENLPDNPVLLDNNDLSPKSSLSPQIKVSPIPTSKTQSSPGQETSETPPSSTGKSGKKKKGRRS
UniProt A0A1I7VQ84, entry or part of it: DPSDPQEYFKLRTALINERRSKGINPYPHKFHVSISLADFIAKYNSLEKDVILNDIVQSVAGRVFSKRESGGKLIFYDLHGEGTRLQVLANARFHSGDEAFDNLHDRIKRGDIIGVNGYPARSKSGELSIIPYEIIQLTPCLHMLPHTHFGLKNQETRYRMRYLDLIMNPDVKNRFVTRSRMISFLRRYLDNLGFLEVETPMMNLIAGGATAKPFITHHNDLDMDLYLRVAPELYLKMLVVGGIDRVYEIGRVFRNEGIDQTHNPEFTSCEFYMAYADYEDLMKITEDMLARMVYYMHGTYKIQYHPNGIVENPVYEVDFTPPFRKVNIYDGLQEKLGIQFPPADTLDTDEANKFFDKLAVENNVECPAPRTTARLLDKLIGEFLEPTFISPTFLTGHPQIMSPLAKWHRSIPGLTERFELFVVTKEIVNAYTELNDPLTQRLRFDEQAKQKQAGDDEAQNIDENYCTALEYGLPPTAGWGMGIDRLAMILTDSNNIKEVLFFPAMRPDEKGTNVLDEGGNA

According to paper PMC5091859, “Protein Translation Enzyme lysyl-tRNA Synthetase Presents a New Target for Drug Development against Causative Agents of Loiasis and Schistosomiasis” (PLoS Neglected Tropical Diseases, 2016):

How the values were obtained:
SmKRS = SmKRS (Schistosoma mansoni, UniProt A0A3Q0KK01); assay: Protein thermal shift assay, SmKRS; format: binding; conditions: ligand 20 μM, KRS 2 μM (10:1), 1 mM L-lysine
Description: (§1) Protein melt curve assays for both worm KRSs were performed as reported earlier. Both KRSs were diluted in buffer containing 20 mM Tris (pH 8.0), 200 mM NaCl, 5 mM MgCl2, 1 mM L-lysine and 2 X SYPRO orange dye (Life Technologies). […] Ligand bound and unbound samples of both KRSs were heated from 20 to 96°C at a rate of 1°C min^-1 and fluorescence signals were monitored by StepOnePlus quantitative real-time PCR system (Life Technologies). […] Each curve was an average of three measurements and data were analyzed using thermal shift software (Life technologies). Samples without the addition of ligands were used to determine thermal melting profile of apo proteins. […] Derivative Tm (melting temperature) was used for analysis.

LlKRS [1] = target: T1, LlKRS (Loa loa, UniProt A0A1I7VQ84); assay: Isothermal titration calorimetry, LlKRS; format: binding; conditions: 30°C, PBS pH 7.4, 1 mM L-Lys, 2 mM MgCl2; read-out: Kd (ITC), LlKRS
Description: ITC experiments were conducted at 30°C in the MicroCal ITC-200 apparatus (GE Healthcare) and results were fitted into graph using Microcal origin software. Both parasite KRSs were prepared in PBS (phosphate-buffered saline) pH 7.4 with 1 mM L-Lys and 2 mM MgCl2, and cladosporin was solubilized in the same buffer. Cladosporin at concentrations of 240 μM and 360 μM was titrated into 21 μM and 22.5 μM protein concentrations of SmKRS and LlKRS respectively. For LlKRS, titrations consisted of 0.4 μl of first injection followed by 39 injections of 1 μl with 150 s intervals between injections. For SmKRS, same titrations were performed with 120 s intervals. Titration of cladosporin in buffer alone was performed to determine the change in enthalpy caused by ligand dilution and then subtracted as background from the actual ligand-binding experiments. Limited protein precipitation with LlKRS during our multiple ITC experiments (in various conditions for n-value optimization trials) was observed and possibly contributed to the lower n-value, which nonetheless is verified as value of 1 based on the crystal structure of the enzyme-drug complex we present here.

LlKRS [2] = target: T1, LlKRS; assay: Protein thermal shift assay, LlKRS; format: binding; conditions: ligand 20 μM, KRS 2 μM (10:1), 1 mM L-lysine
Description: as §1

[3] = target: LlKRS (L. loa lysyl-tRNA synthetase), wild type (Loa loa, UniProt A0A1I7VQ84); assay: biochemical; conditions: IC50, enzyme inhibition of wild type LlKRS, 500 nM enzyme, 100 μM ATP, 500 μM L-lysine, 18 μM SmtRNALys, 37°C

`C[C@H]1CCC[C@H](C[C@H]2Cc3cc(O)cc(O)c3C(=O)O2)O1` [cladosporin] was tested, and the “Thermal shift of SmKRS” value (SmKRS) was 10.8 °C, the Kd (LlKRS [1]) was 45.2 ± 8.4 nM and the “Thermal shift of LlKRS” value (LlKRS [2]) was 15.5 °C. For the same compound, the IC50 [3] was 52 nM and ~52 nM.

Where “and” joins values, the source holds several entries; their conditions need not be identical. Equal values may be shown once.
